Experimental findings from ChEMBL document CHEMBL1135915, “Structure-activity relationships in 1,4-benzodioxan-related compounds. 7. Selectivity of 4-phenylchroman analogues for alpha(1)-adrenoreceptor subtypes” (J Med Chem, 2002) are described below.

The target of this assay is T1, Alpha-1A adrenergic receptor (Homo sapiens, UniProt P35348).
T1 sequence (P35348 whole entry): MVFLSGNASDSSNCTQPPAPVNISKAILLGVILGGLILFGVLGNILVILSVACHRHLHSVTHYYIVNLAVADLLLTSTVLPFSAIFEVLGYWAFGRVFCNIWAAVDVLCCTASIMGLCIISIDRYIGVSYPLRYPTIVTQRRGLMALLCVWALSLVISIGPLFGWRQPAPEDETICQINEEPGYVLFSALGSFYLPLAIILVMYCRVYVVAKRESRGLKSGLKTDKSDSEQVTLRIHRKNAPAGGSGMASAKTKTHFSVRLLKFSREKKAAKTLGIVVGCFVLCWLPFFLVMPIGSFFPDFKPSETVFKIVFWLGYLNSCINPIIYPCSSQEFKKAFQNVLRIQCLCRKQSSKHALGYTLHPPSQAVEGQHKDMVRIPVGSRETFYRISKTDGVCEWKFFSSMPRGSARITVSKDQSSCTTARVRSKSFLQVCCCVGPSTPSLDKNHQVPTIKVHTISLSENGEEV
In words: Affinity constant on CHO cells expressing Human recombinant Alpha-1A adrenergic receptor. The format is cell-based. To be noted: read-out: pA2 (converted).

As for `COc1ccccc1N1CCN(CCN2C(=O)CC3(CCCC3)CC2=O)CC1` [BMY-7378], the Kb is 380 nM.
